For this experiment, the target named is T1, mouse IDO1 (Mus musculus, UniProt P28776).
T1 construct: The murine PANC02 pancreatic ductal adenocarcinoma cell line was routinely maintained in DMEM media; endogenous in cells; host or cells: PANC02 murine pancreatic ductal adenocarcinoma cells, induced with mouse IFNgamma
Description: Mouse IDO1 cell-based assay (PANC02 cells, mouse IFNgamma-induced, N-formylkynurenine/L-tryptophan by RFMS). On the procedure:
The murine PANC02 pancreatic ductal adenocarcinoma cell line was routinely maintained in DMEM media containing 10% FBS. Cells (3,000/well) were seeded onto a 384 well plate in 50 μl of media and incubated at 37° C., 5% CO2 overnight. Cell media was aspirated, fresh media containing 30 ng/mL mouse IFNgamma (Gibco Life Technologies, cat #PMC4031) was added, and cells were incubated in absence or presence of various concentrations of compounds (final 0.5% DMSO) for 48 hours at 37° C., 5% CO2. Aliquots of the cell conditioned media was removed from the cell plate, and mixed with equal volume of 200 mM ZnSO4 to precipitate media containing protein. Two volumes of acetonitrile were added by mixing, and samples were then centrifuged at 2250G for 20 minutes at 4° C. Aliquots of the supernatant were diluted 1:10 in 0.1% formic acid containing 3 μM of deuterated Tryptophan as an internal standard.
Samples were analyzed via RFMS to quantify N-Formyl Kynurenine (AUC) and L-tryptophan (AUC). A C18 cartridge was used with mobile phases of 0.1% Formic Acid and 80% ACN/0.1% Formic Acid under isocratic conditions. Dose-response curves were analyzed using IC50 regression curve fitting (GeneData Screener). […] Cell viability was also assessed using the Cell Titer Glo Kit (Promega) following manufacture recommendation.

Chains of the proteins cited; added tags and fusions are not shown. Lines headed by an entry give the natural chain unless they say otherwise; changes in a name come on top.
UniProt P28776: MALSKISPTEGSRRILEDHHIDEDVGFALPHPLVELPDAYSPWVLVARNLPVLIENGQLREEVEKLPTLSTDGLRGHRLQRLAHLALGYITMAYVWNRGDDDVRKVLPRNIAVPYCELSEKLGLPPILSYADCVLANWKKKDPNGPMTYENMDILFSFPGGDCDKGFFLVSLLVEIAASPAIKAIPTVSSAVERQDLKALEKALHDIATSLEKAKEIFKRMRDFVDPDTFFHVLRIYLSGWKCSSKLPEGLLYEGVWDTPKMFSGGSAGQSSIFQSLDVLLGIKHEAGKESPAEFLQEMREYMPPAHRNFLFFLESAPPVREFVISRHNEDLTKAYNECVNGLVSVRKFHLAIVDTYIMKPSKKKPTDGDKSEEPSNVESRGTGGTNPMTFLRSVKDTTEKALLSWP

For orientation: IC50 means the concentration at which inhibition is half-maximal. A lower IC50 goes with inhibition by little substance. In turn, `CCC(NC(=O)c1ccc(Cl)cc1)[C@H]1[C@@H]2C[C@@H](n3cnc4c(F)cccc43)C[C@@H]21` (stereo partly drawn) [Compound 194, 4-chloro-N-(1-((1R,3s,5S,6r)-3-(4-fluoro-1H-benzo[d]imidazol-1-yl)bicyclo[3.1.0]hexan-6-yl)propyl)benzamide] showed an IC50 of under 0.5 µM.
